Biological target: T1, Full-length human C3aR (residues 1–482) (human, UniProt Q16581 1-482)
T1 construct: C3a anaphylatoxin chemotactic receptor (C3aR), human, residues 1–482; also called C3a receptor; wild-type C3aR; source: Sf9 insect cells (baculovirus), purified (Ni-NTA, anti-FLAG M1 resin) in LMNG/CHS; not shown: eGFP, C-terminal, cleaved; His6, C-terminal, cleaved
T1 sequence (looked up): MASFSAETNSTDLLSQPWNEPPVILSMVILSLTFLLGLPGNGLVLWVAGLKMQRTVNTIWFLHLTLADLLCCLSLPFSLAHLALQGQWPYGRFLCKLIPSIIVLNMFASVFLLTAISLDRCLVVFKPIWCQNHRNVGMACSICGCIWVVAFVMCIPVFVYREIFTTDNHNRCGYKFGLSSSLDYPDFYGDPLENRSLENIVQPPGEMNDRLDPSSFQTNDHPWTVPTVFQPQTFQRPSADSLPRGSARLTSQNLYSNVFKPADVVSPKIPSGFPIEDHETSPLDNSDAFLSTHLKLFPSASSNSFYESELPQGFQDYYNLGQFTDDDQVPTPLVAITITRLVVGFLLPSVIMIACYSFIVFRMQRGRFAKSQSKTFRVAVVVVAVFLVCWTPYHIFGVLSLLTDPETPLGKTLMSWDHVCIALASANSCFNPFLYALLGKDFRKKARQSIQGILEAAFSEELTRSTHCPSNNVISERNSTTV
Test: cryo-EM structure; JR14a–C3aR–Gi–scFv16 complex: purified C3aR, Gi heterotrimer and scFv16 mixed 1:1.2:1.5 with 10 μM JR14a, overnight at 4 °C; anti-GFP nanobody column, on-column HRV 3C cleavage, SEC in 20 mM HEPES pH 8.0, 150 mM NaCl, 0.002% LMNG, 0.0002% CHS, 10 μM JR14a
Conditions: both partners purified

B1: human Gαi1 (natural protein)
chain: MGCTLSAEDKAAVERSKMIDRNLREDGEKAAREVKLLLLGAGESGKSTIVKQMKIIHEAGYSEEECKQYKAVVYSNTIQSIIAIIRAMGRLKIDFGDSARADDARQLFVLAGAAEEGFMTAELAGVIKRLWKDSGVQACFNRSREYQLNDSAAYYLNDLDRIAQPNYIPTQQDVLRTRVKTTGIVETHFTFKDLHFKMFDVGGQRSERKKWIHCFEGVTAIIFCVALSDYDLVLAEDEEMNRMHESMKLFDSICNNKWFTDTSIILFLNKKDLFEEKIKKSPLTICYPEYAGSNTYEEAAAYIQCQFEDLNKRKDTKEIYTHFTCATDTKNVQFVFDAVTDVIIKNNLKDCGLF
notes: also called Gi1; source: Trichoplusia ni (Hi5) insect cells, co-expressed with His6-Gβ1 and Gγ2, purified as the heterotrimer (Ni-NTA, HiTrap Q)
B1: binds.
